# Test results: patent US12605384B2, “Uses” (INTRA-CELLULAR THERAPIES, INC., priority 2018, dated 2026)
# “Also recorded” adds a separate entry of the source.
# Legend:
# [1] = system: New Zealand White rabbits; assay: Pressure-volume hemodynamics in anesthetized rabbits; assay type: in vivo, rabbit; details: 0.1 mg/kg i.v. bolus, alone
# Procedure: Cyclic AMP is generated largely by transmembrane adenylyl cyclases activated via stimulatory G protein (Gs), with β-adrenergic, adenosine (primarily […]), glucagon, prostanoids, histamine, and serotonin all coupling to Gs in cardiomyocytes. The present studies focus on beta-adrenergic and adenosine receptors, and for the latter, concentrated on the A2B receptor, which has been reported to directly stimulate cAMP-dependent contractility. Anesthetized rabbits are administered a bolus intravenous Compound 1 at 0.1 mg/kg (dose based on dog results) with or without prior treatment with the selective β1-blocker esmolol or the adenosine A2BR blocker MRS-1754. […] Relaxation changes are also modest with LV preload (end-diastolic and volume) unaltered; however, the combined vasodilator-inotropic response doubled ventricular/arterial coupling ratio, Ees/Ea.
# New Zealand White rabbits (male, 2-3 kg) are sedated with 35 mg/kg ketamine and 5 mg/kg xylazine, intubated and ventilated (Model 683, Harvard Apparatus, Holliston, MA), with anesthesia maintained with isoflurane inhalation (1-2%). […] The parallel conductance is determined by the hypertonic saline injection method. […]
# [2] = system: patients with stable chronic systolic HF; assay: Phase Ib/IIa single ascending dose study in human heart failure; assay type: in vivo; details: 30 mg, in comparison with placebo
# Procedure: A Phase Ib/IIa, multi center, double-blind, randomized, placebo-controlled single ascending dose study of Compound 1 in patients with stable chronic systolic HF (NYHA Class II-II, LVEF≤35%) was conducted to evaluate the impact of a single oral dose of Compound 1 on cardiac systolic and diastolic function. Participants were randomized 3:1 in 3-groups of 12 to receive either Compound 1 at 10 mg, 30 mg, 90 mg. A further group was administered placebo.
# Hemodynamic monitoring began 30-60 minutes prior to the pre-dose echocardiogram through to 5-6 hours post-dose.
# Supine and orthostatic blood pressure and heart rate were recorded pre-dose, as well as 60 and 40 minutes post-dose. Continuous electrocardiographic monitoring starting up to 30-60 minutes prior to the pre-dose echocardiogram through to 5-6 hours post-dose including measurement of ectopic arrhythmias pre- and post-dose.
compound,measurement,setting,value
"CN1C(=O)c2c(nn(Cc3ccc(-c4cccc(F)n4)cc3)c2Nc2ccccc2)N2C1=N[C@@H]1CCC[C@@H]12 [Compound 1, (6aR,9aS)-2-(4-(6-fluoropyridin-2-yl)benzyl)-5-methyl-3-(phenyl-amino)-5,6a,7,8,9,9a-hexahydrocyclopenta-[4,5]imidazo[1,2-a]pyrazolo[4,3-e]pyrimidin-4-(2H)-one monophosphate]","ventricular/arterial coupling ratio, Ees/Ea",[1],doubled
same,mean power index (mPWRi) and cardiac output (CO),[2],significantly greater increases; also recorded: significantly increased
